Assay results: US11524977B2, “Ultrasound-assisted simulated digestion method of milk protein active peptide and application thereof in health foods” (JIANGSU UNIVERSITY, priority 2017, dated 2022)

By UniProt entry, the sequences of proteins in these tests, tags left out. Residues count along the entry.
UniProt P12821, 30-1306, species assumed: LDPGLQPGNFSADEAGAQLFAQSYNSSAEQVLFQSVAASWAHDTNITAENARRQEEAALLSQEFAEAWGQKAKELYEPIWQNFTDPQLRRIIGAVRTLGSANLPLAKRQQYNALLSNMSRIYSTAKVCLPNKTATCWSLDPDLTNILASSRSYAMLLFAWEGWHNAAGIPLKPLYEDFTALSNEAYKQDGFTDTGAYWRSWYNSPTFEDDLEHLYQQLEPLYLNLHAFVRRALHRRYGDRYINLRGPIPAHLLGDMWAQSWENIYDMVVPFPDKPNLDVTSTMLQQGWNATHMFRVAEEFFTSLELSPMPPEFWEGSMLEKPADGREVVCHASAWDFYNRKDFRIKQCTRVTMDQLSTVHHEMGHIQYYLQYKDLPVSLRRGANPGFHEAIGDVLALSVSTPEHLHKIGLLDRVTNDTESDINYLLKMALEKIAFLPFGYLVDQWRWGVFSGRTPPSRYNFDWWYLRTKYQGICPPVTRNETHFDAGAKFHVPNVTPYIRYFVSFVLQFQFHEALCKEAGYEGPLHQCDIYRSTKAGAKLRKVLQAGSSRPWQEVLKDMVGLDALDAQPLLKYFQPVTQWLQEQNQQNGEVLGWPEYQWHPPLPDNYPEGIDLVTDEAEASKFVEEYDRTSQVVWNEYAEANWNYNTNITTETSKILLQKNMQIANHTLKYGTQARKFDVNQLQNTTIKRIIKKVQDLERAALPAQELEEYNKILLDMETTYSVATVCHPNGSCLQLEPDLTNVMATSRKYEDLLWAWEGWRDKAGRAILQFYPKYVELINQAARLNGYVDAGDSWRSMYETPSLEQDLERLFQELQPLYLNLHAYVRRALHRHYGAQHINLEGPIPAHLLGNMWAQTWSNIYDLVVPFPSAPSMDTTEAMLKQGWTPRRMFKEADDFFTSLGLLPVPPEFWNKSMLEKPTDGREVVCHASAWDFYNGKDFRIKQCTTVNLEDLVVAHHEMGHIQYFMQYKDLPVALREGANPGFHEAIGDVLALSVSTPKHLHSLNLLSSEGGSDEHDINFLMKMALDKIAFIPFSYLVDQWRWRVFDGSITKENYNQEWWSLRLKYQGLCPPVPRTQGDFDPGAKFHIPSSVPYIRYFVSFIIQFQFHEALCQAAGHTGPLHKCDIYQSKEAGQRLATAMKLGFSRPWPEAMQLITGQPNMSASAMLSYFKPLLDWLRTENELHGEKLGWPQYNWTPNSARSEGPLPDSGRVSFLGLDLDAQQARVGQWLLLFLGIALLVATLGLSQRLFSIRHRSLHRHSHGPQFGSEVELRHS

Target: ACE (Homo sapiens, UniProt P12821)
Type: biochemical
Details: read-out: IC50 (ACE inhibition)

Leu-Ser-Leu-Pro [LSLP] was tested, and the IC50 was 21.1 µM.
